This note sets out measurements from ChEMBL document CHEMBL5260839 (J Med Chem, 2019).

Amino acid sequences for entries named in this document (tags omitted). A change or cut given only in a name is not applied to a line headed by its entry.
UniProt Q00987, whole entry, looked up: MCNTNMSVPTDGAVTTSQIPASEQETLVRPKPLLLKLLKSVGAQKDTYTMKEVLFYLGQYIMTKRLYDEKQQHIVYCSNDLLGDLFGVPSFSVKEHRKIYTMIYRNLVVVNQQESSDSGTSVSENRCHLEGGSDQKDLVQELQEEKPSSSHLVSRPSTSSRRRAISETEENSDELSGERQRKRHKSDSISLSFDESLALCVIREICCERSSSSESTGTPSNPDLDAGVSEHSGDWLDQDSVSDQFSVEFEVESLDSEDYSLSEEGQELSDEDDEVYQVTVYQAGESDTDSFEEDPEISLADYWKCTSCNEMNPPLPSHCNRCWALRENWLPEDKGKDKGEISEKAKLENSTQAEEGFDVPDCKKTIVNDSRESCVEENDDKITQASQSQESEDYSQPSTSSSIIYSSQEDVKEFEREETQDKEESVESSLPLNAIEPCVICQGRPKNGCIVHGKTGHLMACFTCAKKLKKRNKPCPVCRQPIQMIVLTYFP
UniProt Q96SW2: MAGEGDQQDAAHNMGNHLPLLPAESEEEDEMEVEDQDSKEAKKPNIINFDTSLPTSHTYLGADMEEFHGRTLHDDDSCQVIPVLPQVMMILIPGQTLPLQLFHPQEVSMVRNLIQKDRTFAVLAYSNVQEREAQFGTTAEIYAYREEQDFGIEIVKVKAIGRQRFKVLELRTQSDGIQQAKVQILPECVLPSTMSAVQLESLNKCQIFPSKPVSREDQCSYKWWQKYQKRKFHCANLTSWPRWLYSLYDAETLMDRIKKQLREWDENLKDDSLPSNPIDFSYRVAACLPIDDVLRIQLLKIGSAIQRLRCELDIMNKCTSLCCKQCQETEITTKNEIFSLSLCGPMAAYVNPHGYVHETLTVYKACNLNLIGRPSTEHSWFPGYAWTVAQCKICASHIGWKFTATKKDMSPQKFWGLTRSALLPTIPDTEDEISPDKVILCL

The target of experiment [1] is T1, Protein cereblon/E3 ubiquitin-protein ligase Mdm2 (Homo sapiens) (UniProt Q00987+Q96SW2). In words: PROTAC activity at CRBN/MDM2 in human RS4-11 cells harbouring wildtype p53 assessed as decrease in MDM2 protein level at 3 nM incubated for 2 hrs by Western blot analysis. The experiment is classed as cell-based. On the technique in general: Immunoblotting shows a protein as a band on a membrane.

Experiment [2] concerns the target T1, Protein cereblon/E3 ubiquitin-protein ligase Mdm2 (Homo sapiens). Briefly: PROTAC activity at CRBN/MDM2 in human RS4-11 cells harbouring wildtype p53 assessed as increase in p53 accumulation at 10 nM incubated for 2 hrs by Western blot analysis. The experiment is classed as cell-based.
The target is the same in experiment [3]. Briefly: PROTAC activity at CRBN/MDM2 in human RS4-11 cells harbouring wildtype p53 assessed as decrease in MDM2 protein level at 1 nM incubated for 2 hrs by Western blot analysis. The experiment is classed as cell-based.
Experiment [4] has the same target. Briefly: PROTAC activity at CRBN/MDM2 in human RS4-11 cells harbouring wildtype p53 assessed as fold change in MDM2 level at 0.03 uM incubated for 2 hrs in the presence of lenalidomide by Western blot analysis. The format is cell-based.
For experiment [5] the target is unchanged. Briefly: PROTAC activity at CRBN/MDM2 in human RS4-11 cells harbouring wildtype p53 assessed as fold decrease in MDM2 protein level at 30 nM preincubated with MG-132 for 4 hrs followed by compound treatment and measured after 2 hrs by Western blot analysis. The format is cell-based.
Experiment [6] shares this target. In words: PROTAC activity at CRBN/MDM2 in human RS4-11 cells harbouring wildtype p53 assessed as fold decrease in MDM2 protein level at 30 nM preincubated with MLN4924 for 4 hrs followed by compound treatment and measured after 2 hrs by Western blot analysis. The experiment is classed as cell-based.
For experiment [7] the target is unchanged. In words: PROTAC activity at CRBN/MDM2 in human RS4-11 cells harbouring wildtype p53 assessed as fold change in p53 accumulation at 30 nM preincubated with MLN4924 for 4 hrs followed by compound treatment and measured after 2 hrs by Western blot analysis. The experiment is classed as cell-based.
The target is the same in experiment [8]. Briefly: PROTAC activity at CRBN/MDM2 in human MV4-11 cells assessed as fold change in p53 accumulation by Western blot analysis relative to MI-1061. The experiment is classed as cell-based.
The target is the same in experiment [9]. Briefly: PROTAC activity at CRBN/MDM2 in human RS4-11 cells harbouring wildtype p53 assessed as upregulation of MDM2 mRNA expression by measuring fold change at 0.03 to 0.1 uM incubated for 6 hrs by qRT-PCR analysis relative to MI-1061. The experiment is classed as cell-based. The conditions noted are these: dose 0.03-0.1 µM.
The target is the same in experiment [10]. Briefly: PROTAC activity at CRBN/MDM2 in human RS4-11 cells harbouring wildtype p53 assessed as upregulation of p21 mRNA expression by measuring fold change at 0.03 to 0.1 uM incubated for 6 hrs by qRT-PCR analysis relative to MI-1061. The experiment is classed as cell-based. The conditions noted are these: dose 0.03-0.1 µM. (Real-time PCR tracks product formation cycle by cycle.)

The target is the same in experiment [11]. Briefly: In vivo PROTAC activity at CRBN/MDM2 in human RS4-11 cells xenografted in mouse assessed as fold change in MDM2 protein level in tumor at 25 mg/kg, iv administered as single dose and measured after 24 hrs by Western blot analysis. The experiment is classed as functional, organism-based.
For experiment [12] the target is unchanged. In words: In vivo PROTAC activity at CRBN/MDM2 in human RS4-11 cells xenografted in mouse assessed as fold change in p53 protein level in tumor at 25 mg/kg, iv administered as single dose and measured after 3 hrs by Western blot analysis. The experiment is classed as functional, organism-based.
Experiment [13] has the same target. Briefly: In vivo PROTAC activity at CRBN/MDM2 in human RS4-11 cells xenografted in mouse assessed as fold change in p21 protein level in tumor at 25 mg/kg, iv administered as single dose and measured after 6 hrs by Western blot analysis. The format is functional, organism-based.
The target is the same in experiment [14]. Briefly: In vivo PROTAC activity at CRBN/MDM2 in human RS4-11 cells xenografted in mouse assessed as fold change in cleaved PARP protein level in tumor at 25 mg/kg, iv administered as single dose and measured after 24 hrs by Western blot analysis. The experiment is classed as functional, organism-based.

In the case of `O=C1CCC(N2Cc3c(C#CCCCNC(=O)c4ccc(NC(=O)[C@@H]5NC6(CCCCC6)[C@@]6(C(=O)Nc7cc(Cl)ccc76)[C@H]5c5cccc(Cl)c5F)cc4)cccc3C2=O)C(=O)N1` (some centres undefined), the fold change (FC) in experiment [1] was determined as 0.05; in [2] it was 2.7; in experiment [3], 0.2; in [4] it was 1; in experiment [5] it was 3.1; in experiment [6] it was 3.1. Also, the fold change (FC) in [7] was 10.3; in experiment [9], over 10; in [10], over 10; in [11] it was 0.2; in experiment [12], 3.3; in experiment [13], 1.6. For the same molecule, the fold change (FC) in experiment [14] stood at 47.4. The Ratio IC50 in experiment [8] was over 10.
